Measured values as given in publication PMC6385310 (Scientific Reports, 2019).

By UniProt entry, the sequences of proteins in these tests, tags left out. Where a name states a change or a piece, a line headed by the entry shows the natural chain unless it says otherwise.
UniProt P06401: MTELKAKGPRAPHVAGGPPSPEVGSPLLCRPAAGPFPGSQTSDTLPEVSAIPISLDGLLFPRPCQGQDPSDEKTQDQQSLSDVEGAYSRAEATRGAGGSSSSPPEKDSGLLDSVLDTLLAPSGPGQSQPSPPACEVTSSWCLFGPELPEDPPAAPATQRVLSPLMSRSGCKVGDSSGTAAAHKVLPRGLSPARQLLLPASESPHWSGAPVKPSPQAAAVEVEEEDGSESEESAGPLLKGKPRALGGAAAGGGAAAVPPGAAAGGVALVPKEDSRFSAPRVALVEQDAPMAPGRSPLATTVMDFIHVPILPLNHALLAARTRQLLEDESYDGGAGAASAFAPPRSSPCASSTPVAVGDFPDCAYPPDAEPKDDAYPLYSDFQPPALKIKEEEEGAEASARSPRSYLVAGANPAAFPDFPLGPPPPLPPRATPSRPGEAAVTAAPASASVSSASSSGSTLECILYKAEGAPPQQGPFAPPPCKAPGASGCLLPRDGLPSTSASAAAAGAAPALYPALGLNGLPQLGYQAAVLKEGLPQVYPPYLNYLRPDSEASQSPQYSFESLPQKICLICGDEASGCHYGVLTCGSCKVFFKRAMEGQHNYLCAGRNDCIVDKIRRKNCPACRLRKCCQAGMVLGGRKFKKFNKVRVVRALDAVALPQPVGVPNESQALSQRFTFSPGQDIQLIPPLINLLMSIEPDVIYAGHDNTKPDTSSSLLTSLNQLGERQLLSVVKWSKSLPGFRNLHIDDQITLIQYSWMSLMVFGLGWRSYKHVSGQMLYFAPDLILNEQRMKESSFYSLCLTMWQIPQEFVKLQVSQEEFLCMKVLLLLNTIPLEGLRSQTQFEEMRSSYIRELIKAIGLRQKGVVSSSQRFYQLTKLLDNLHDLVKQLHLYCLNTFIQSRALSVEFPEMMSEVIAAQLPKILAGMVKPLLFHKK

Biological target: progesterone receptor (PR) (Homo sapiens, UniProt P06401)
Test: PR antagonism in T-47D cells, qRT-PCR of ORG2058-induced FKBP54 and S100P
Details: 10 nM ORG2058, 24 h; for PR antagonism: inhibition of ORG2058-induced up-regulation of S100P and FKBP54: increasing concentrations of compound; for PR agonist activity: increased expression of S100P and FKBP54: lower concentrations of compound

Row | SMILES | PR antagonism: inhibition of ORG2058-induced up-regulation of S100P and FKBP54 | PR agonist activity: increased expression of S100P and FKBP54
1 | CC#C[C@]1(O)CC[C@H]2[C@@H]3CCC4=CC(=O)CCC4=C3[C@@H](c3ccc(N(C)C)cc3)C[C@@]21C [Compound 1, mifepristone, reference compound] | strongly inhibited ORG2058-induced up-regulation of S100P and FKBP54 at 100 nM | no detectable PR agonistic activity
2 | CN(C)c1ccc([C@H]2C[C@@]3(C)[C@@H](CC[C@@]3(O)C#C[Si](C)(C)C)[C@@H]3CCC4=CC(=O)CCC4=C32)cc1 [Compound 33] | reduced PR antagonism, requiring 1 uM for activity | –
3 | COc1ccc(C#C[C@]2(O)CC[C@H]3[C@@H]4CC[C@@]5(O)CC6(CCC5=C4[C@@H](c4ccc(N(C)C)cc4)C[C@@]32C)OCCO6)cc1 [Compound 37] | inhibition of S100P and FKBP54 only occurring at 1 µM | –
4 | COc1ccc(C#C[C@]2(O)CC[C@H]3[C@@H]4CCC5=CC(=O)CCC5=C4[C@@H](c4ccc(N(C)C)cc4)C[C@@]32C)cc1 [Compound 39] | maximal antagonism of S100P and FKBP54 evident at 10 nM | no detectable PR agonistic activity
